Where “and” joins values, the source holds several entries; their conditions need not be identical. Identical values can stand only once.

Protein sequences, listed by entry. Tags and fused reporters are not part of them.
UniProt P27487, whole entry: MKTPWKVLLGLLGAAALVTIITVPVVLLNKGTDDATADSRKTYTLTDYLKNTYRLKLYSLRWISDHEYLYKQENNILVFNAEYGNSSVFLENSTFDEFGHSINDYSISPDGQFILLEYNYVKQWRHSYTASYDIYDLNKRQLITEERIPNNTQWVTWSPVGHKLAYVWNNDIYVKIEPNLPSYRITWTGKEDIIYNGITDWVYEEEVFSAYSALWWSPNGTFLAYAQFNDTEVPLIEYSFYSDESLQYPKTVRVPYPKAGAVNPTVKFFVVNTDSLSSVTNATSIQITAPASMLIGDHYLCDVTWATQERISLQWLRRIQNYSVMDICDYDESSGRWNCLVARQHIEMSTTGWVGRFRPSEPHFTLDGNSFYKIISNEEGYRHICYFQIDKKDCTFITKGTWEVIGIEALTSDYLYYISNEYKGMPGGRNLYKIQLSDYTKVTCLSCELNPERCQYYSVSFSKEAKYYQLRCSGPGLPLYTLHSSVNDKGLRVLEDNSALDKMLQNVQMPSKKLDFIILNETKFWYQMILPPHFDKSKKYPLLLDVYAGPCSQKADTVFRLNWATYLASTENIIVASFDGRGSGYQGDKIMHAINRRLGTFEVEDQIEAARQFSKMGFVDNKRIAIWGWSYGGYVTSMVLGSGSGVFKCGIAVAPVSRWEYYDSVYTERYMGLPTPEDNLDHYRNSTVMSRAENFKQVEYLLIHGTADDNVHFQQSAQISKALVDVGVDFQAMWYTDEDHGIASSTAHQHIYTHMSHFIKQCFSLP

The target in assay [1] is T1, DPP-4 (human recombinant) (Homo sapiens, UniProt P27487).
T1 construct: purchased Sigma Aldrich D3446
The assay can be described thus: Inhibition kinetic analysis (V vs [DPP-4], Lineweaver-Burk, Dixon and Cornish-Bowden plots). In kind it is biochemical. To be noted: Dixon equation; read-out: Kic (competitive inhibition constant).

The target of assay [2] is T1, DPP-4 (human recombinant). The assay can be described thus: In vitro assay for DPP-4 inhibitory activity (fluorescence, Gly-Pro-AMC).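 Also: fluorescence of released AMC (excitation 360 nm, emission 460 nm) followed kinetically over 30 min at 37 °C in Tris-HCl pH 8.0.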 The class given is biochemical. As to conditions: DPP-4 inhibition, fluorescence method.

A word on the IC50: it is the concentration at which inhibition is half-maximal. Take `O=c1c(O[C@@H]2O[C@H](CO)[C@H](O)[C@H](O)[C@H]2O)c(-c2ccc(O)c(O)c2)oc2cc(O)cc(O)c12` [E4, Hyperoside]: the Ki in assay [1] came to 90.3 ± 1 µM. Besides, in assay [2], the concentration for half-maximal inhibition (IC50) was 139 µM and < 200 µM.

(Values after publication PMC9134086, “Inhibition of Dipeptidyl Peptidase-4 by Flavonoids: Structure–Activity Relationship, Kinetics and Interaction Mechanism” (Frontiers in Nutrition, 2022).)
